Source: patent US20070249501A1 (priority 2004, published 2007)

Assays:
total aerobic bacteria = assay: Viability of soil-borne bacteria in treated soil: total bacteria; conditions: applied to soil at 30 ppm; 7 days at 25° C.
[1] = cited from earlier work
[2] = Degradation of bromopicrin in soil (HPLC, GC-MS); conditions: 5 mg bromopicrin to 1,000 grams Rehovot sand soil (95% sand); 0.5, 3 and 7 days
[3] = system: tomato (cv. 870) seedlings; assay: Residual phytotoxicity of treated soil to tomato seedlings; conditions: dosage of 10-30 ppm; soil aerated ten days

## O=[N+]([O-])C(Br)(Br)Br
Total aerobic bacteria
  density of total aerobic bacteria in soil: about 6×10^5 cfu/g
[1]
  Solubility in Water: Slightly
[2]
  dissipation of bromopicrin in soil: rapidly dissipates in soil
[3]
  root system development compared with the untreated control: developed larger root systems
